EP1100824B1, “COMPOUNDS WITH GROWTH HORMONE RELEASING PROPERTIES” (NOVO NORDISK A/S, priority 1998, dated 2011)

Assays:
[1] = test system: Pancreatic enzyme mix: trypsin, chymotrypsin and elastase; assay: Metabolic stability in pancreatic enzyme mix (ESMS, selected ion monitoring); conditions: stability: decrease in SIM signal after 24 h in degradation solution, chymotrypsin and elastase 0.025 mg/ml, 100 mM ammoniumbicarbonate pH 8.0, 37°C
[2] = test system: Carboxypeptidase mix: carboxypeptidase Y and B; assay: Metabolic stability in carboxypeptidase mix (ESMS, selected ion monitoring); conditions: stability: decrease in SIM signal after 24 h in degradation solution; carboxypeptidase Y and B 0.025 mg/ml, 50 mM ammoniumacetate pH 4.5, 37°C

CSCC[C@H](NC(=O)[C@H](CC(C)C)NC(=O)[C@H](Cc1c[nH]c2ccccc12)NC(=O)[C@H](CCC(N)=O)NC(=O)[C@@H](NC(=O)[C@H](Cc1ccccc1)NC(=O)[C@H](CC(=O)O)NC(=O)[C@H](CCC(N)=O)NC(=O)[C@H](C)NC(=O)[C@H](CCCN=C(N)N)NC(=O)[C@H](CCCN=C(N)N)NC(=O)[C@H](CO)NC(=O)[C@H](CC(=O)O)NC(=O)[C@H](CC(C)C)NC(=O)[C@H](Cc1ccc(O)cc1)NC(=O)[C@H](CCCCN)NC(=O)[C@H](CO)NC(=O)[C@H](Cc1ccc(O)cc1)NC(=O)[C@H](CC(=O)O)NC(=O)[C@H](CO)NC(=O)[C@@H](NC(=O)[C@H](Cc1ccccc1)NC(=O)[C@@H](NC(=O)CNC(=O)[C@H](CCC(N)=O)NC(=O)[C@H](CO)NC(=O)[C@@H](N)Cc1c[nH]cn1)[C@@H](C)O)[C@@H](C)O)C(C)C)C(=O)N[C@@H](CC(N)=O)C(=O)N[C@H](C(=O)O)[C@@H](C)O [Glucagon] was tested, and the Pan. enzyme mix [1] was “- (-: Unstable (more than 20% decrease in SIM signal after 24 h in degradation solution))” and the Carboxy-peptidase mix [2] was “- (-: Unstable (more than 20% decrease in SIM signal after 24 h in degradation solution))”.
